Changes are numbered by the printed parent chain. Names and notes keep the numbering of the source. Values belong to the binder of their own block, whether it stands above or below them.
Key:
tubulin dimer = tubulin dimer (UniProt P02550); test: cell-based or functional assay
[1] = molecular target: the molecule itself; test: ThT fluorescence aggregation assay; tauRD 5, 10, 20, 40 μM in 1X PBS, 10 mM DTT, induced with 2X heparin, 37 °C; self-assembly into fibrils, t1/2max from fitted curves; fibrils at endpoints seen by TEM

Sequences of proteins named here, by UniProt entry; tags and fusion partners are left off.
UniProt P02550, whole entry, looked up: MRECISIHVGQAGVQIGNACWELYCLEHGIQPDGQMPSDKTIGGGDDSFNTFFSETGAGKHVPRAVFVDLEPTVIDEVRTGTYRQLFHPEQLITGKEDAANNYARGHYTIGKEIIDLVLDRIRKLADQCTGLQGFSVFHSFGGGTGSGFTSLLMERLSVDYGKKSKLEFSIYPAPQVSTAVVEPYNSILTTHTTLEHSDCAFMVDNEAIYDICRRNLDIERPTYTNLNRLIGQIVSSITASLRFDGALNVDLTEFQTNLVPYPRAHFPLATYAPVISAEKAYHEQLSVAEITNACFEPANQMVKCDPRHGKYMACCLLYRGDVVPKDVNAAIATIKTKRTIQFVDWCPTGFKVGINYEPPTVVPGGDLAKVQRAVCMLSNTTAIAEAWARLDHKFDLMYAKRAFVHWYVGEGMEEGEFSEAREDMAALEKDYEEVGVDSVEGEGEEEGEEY

- microtubule polymerization assay, polymerization amplitude (endpoint intensity), fold reduction relative to WT tauRD (tubulin dimer): 1.5 fold
- microtubule polymerization assay, t1/2max to endpoint polymerization, 10 μM tauRD with 2 mg/ml tubulin (tubulin dimer): 0.645 h
B1: tauRD Turn mutant (domain or fragment, human, UniProt P10636-8 243-380, looked up)
chain: LQTAPVPMPDLKNVKSKIGSTENLKHQPGGGKVQIINKKLDLSNVQSKCGSKDNIKHQPGGGKVQIVYKPVDLSKVTSKCGSLGNIHHKPGGGQVEVKSEKLDFKDRVQSKIGSLDNITHVPGGGNKKIETHKLTFRE
notes: tau repeat domain, human MAPT, 4R tauRD residues 243-380 on 2N4R tau, with V300Q and S305K; without tags; also called Turn mutant tauRD; source: E. coli BL21-Gold (DE3), purified (boiling, HiTrap SP, Superdex 75)
- t1/2max of ThT aggregation at 5 μM [1]: 97 ± 24 h
- t1/2max of ThT aggregation at 40 μM [1]: 11.1 ± 5.8 h

- microtubule polymerization assay, polymerization amplitude (endpoint intensity), fold increase relative to WT tauRD (tubulin dimer): 1.5 fold
- microtubule polymerization assay, t1/2max to endpoint polymerization, 10 μM tauRD with 2 mg/ml tubulin (tubulin dimer): 0.588 h
B2: tauRD Full mutant (domain or fragment, human, UniProt P10636-8 243-380, looked up)
chain: B1 chain with D53E, I55L
notes: tau repeat domain, human MAPT, 4R tauRD residues 243-380 on 2N4R tau, with D295E, I297L, V300Q and S305K; without tags; also called Full mutant tauRD; source: E. coli BL21-Gold (DE3), purified (boiling, HiTrap SP, Superdex 75)
- t1/2max of ThT aggregation at 40 μM [1]: 58.6 ± 22.7 h
